Screening data deposited in PubChem by Broad Institute.
Shown are actives, neighbours in structure and some others; about 2.2% of the full set was active somewhere.
PDI turbidity – inhibitors of human PDI, primary screen, biochemical, turbidity, single point, plate reader; actives 0.052% (n = 350,000); PDI insulin aggregation turbidity, A650, 90 min; inhibition, % at 10 µM;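 active means mean inhibition across replicates of 30% or more, whatever share of single replicates reach that level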
ERp5 block – inhibitors of ERp5-driven insulin aggregation, primary screen, biochemical, turbidity, absorbance 650 nm, single point; AID 651711, 2012; Protein disulfide-isomerase A6 (Homo sapiens), Q15084; actives 0.05% (n = 350,000); inhibition, % at 9.99 µM; 90 min;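 active means mean replicate inhibition above about 25%, with every replicate also reaching it, limit read from the data, passing the limit was not always enough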
SIRT5 inh – SIRT5 desuccinylase inhibitors, primary screen, biochemical, fluorescence imaging, single point, set 5. AID 652115, 2013. actives 1.1% (n = 330,000). inhibition, % at 15 µM. NAD-dependent protein deacylase sirtuin-5, mitochondrial (Homo sapiens), Q9NXA8. Purified SirT5, succinyl-peptide AMC, trypsin-coupled fluorescence; in the data active means inhibition above about 15%
FGF22 binding – binders of human FGF22 protein, primary screen, FGF22 synaptogenesis inhibitor project, biophysical, thermal shift, single point; recombinant FGF22 thermal shift, SYPRO orange fluorescence; percent of sucrose octasulfate shift, DMSO zero; Fibroblast growth factor 22 (Homo sapiens), Q9HCT0; activity (Tm shift, normalised), % at 9.99 µM; actives 1.5% (n = 340,000);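 active means mean Tm shift, scaled 0 neutral to 100 positive control, at about 1.3% or above, every replicate too, limit read from the data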
S100A4 inh HTS – inhibitors of S100A4-myosin IIA peptide binding, primary screen, biochemical, fluorescence polarization, TAMRA-MyoIIA peptide; Protein S100-A4 (Homo sapiens), P26447; inhibition, % at 10.7 µM; actives 0.14% (n = 360,000); AID 652163, 2013;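 active means mean inhibition of at least 70% across replicates, with every replicate also reaching that level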
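incubation = readout 5 min after mixing, signal stable up to 60 min | system = S100A4 monomer protein | buffer or medium = HEPES pH 7.2 with CaCl2, KCl, NaCl, DTT, Triton | benchmarks = neutral control DMSO, positive control TFP | also added = fluorescent myosin IIA peptide, 5 nM | compound dosing = one concentration per compound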
Yeast UUG start – yeast start codon fidelity modulation. S. cerevisiae UUG-firefly luciferase reporter, luminescence/redox ratio. activity score, % at 18.7 µM. 0.13% of 350,000 active;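 active means replicate mean at a twofold rise or more, about +100% in these data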;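 further: firefly luciferase made from a UUG start codon reports start codon fidelity; reporter light over untreated wells divided by growth signal over untreated wells; some hits fall short of that in this replicate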
* marks the source's active call; other numbers are inactive results; x = no result given.

The chains behind the UniProt entries cited, without tags or fusion partners.
Protein disulfide-isomerase A6 (Homo sapiens), Q15084, UniProt Q15084, whole entry, looked up: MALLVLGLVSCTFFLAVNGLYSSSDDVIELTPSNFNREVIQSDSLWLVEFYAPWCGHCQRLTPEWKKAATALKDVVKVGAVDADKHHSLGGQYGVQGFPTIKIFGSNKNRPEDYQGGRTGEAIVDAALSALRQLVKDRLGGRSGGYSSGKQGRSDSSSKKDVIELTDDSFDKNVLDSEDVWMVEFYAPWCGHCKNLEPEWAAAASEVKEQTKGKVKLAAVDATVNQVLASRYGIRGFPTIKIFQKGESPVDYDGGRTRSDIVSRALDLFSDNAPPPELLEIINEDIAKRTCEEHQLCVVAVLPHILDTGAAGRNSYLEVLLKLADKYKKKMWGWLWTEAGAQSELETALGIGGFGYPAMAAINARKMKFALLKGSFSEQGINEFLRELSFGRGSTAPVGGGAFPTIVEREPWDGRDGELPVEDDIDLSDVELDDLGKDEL

Each structure is followed by: PDI turbidity, ERp5 block, SIRT5 inh, FGF22 binding, S100A4 inh HTS, Yeast UUG start
C[C@H]1CN([C@@H](C)CO)C(=O)c2cc(NC(=O)Nc3ccc(C(F)(F)F)cc3)ccc2O[C@H]1CN(C)C(=O)Nc1ccc2c(c1)OCO2
 : x, -5, 6, 0, 1, 9
C[C@@H]1CN([C@@H](C)CO)C(=O)c2cc(NC(=O)Nc3ccc(C(F)(F)F)cc3)ccc2O[C@@H]1CN(C)C(=O)Nc1ccc2c(c1)OCO2
 : x, -4, 15*, 0, -5, -17
C[C@@H]1CN([C@H](C)CO)C(=O)c2cc(NC(=O)Nc3ccc4c(c3)OCO4)ccc2O[C@H]1CN(C)C(=O)Nc1ccc(C(F)(F)F)cc1
 : x, -8, -2, 0, -12, -9
COc1cccc(-c2cc(=O)[nH][nH]2)c1
 : 6, -10, -1, 0, 7, x
COc1cccc(-c2ccc(C#N)c(=O)[nH]2)c1
 : 1, 4, -6, 43*, -5, x
C[C@@H]1CCCCO[C@H](CN(C)Cc2ccccc2)[C@H](C)CN([C@H](C)CO)C(=O)c2cc(NC(=O)Cc3ccccc3)ccc2O1
 : x, -5, 16*, -1, 8, 19
C[C@H]1CCCCO[C@@H](CN(C)C(=O)C2CCCCC2)[C@@H](C)CN([C@@H](C)CO)C(=O)c2cc(NC(=O)Cc3ccccc3)ccc2O1
 : x, -4, -1, 1.9*, -1, 5
COc1ccc(NC(=O)N(C)C[C@H]2OCCCC[C@@H](C)Oc3ccc(NC(=O)Cc4ccccc4)cc3C(=O)N([C@H](C)CO)C[C@@H]2C)cc1
 : x, -1, 19*, 0, 6, -3
C[C@@H]1CCCCO[C@@H](CN(C)C(=O)C2CCCCC2)[C@@H](C)CN([C@H](C)CO)C(=O)c2cc(NC(=O)Cc3ccccc3)ccc2O1
 : x, -2, -3, 0, -26, 0
C[C@@H]1CCCCO[C@@H](CN(C)C(=O)Cc2ccccc2)[C@H](C)CN([C@@H](C)CO)C(=O)c2cc(NC(=O)Cc3ccccc3)ccc2O1
 : x, -6, 6, 0, 126*, 21
COc1ccc(NC(=O)N(C)C[C@@H]2OCCCC[C@H](C)Oc3ccc(NC(=O)Cc4ccccc4)cc3C(=O)N([C@@H](C)CO)C[C@@H]2C)cc1
 : x, 5, 1, 0, -7, 5
C[C@@H]1CCCCO[C@H](CN(C)C(=O)Cc2ccccc2)[C@@H](C)CN([C@H](C)CO)C(=O)c2cc(NC(=O)Cc3ccccc3)ccc2O1
 : x, 5, 0, 0, 0, -9
O=C(O)Cc1ccc(N=Nc2c(O)c(C(=O)O)cc3ccccc23)cc1
 : 1, -4, 31*, 0, 1, -5
COc1cccc(N=Nc2ccc3ccccc3c2O)c1
 : -3, -3, -1, 0, 122*, -26
COc1cc(NC(=S)N2CCN(Cc3ccccc3)CC2)cc(OC)c1
 : 5, x, x, x, x, x
CCOc1ccc(NC(=S)NN2C(C)CCCC2C)cc1 (stereo not drawn)
 : 17, x, x, x, x, -29
CC(=O)N1CCN(c2ccc(NC(=O)/C=C/c3ccccc3)cc2)CC1
 : 20, -1, 0, 44*, -10, 1
COc1ccc(NC(=S)N2CCN(Cc3ccccc3)CC2)cc1
 : 4, 8, 94*, 0, -4, x
CC(=O)c1ccc(NC(=S)NN2C(C)CCCC2C)cc1 (stereo not drawn)
 : 6, -1, 2, 43*, -4, x
CC(=O)c1ccc(NC(=S)N2CC(C)CC(C)C2)cc1 (stereo not drawn)
 : -9, -4, 16*, 1, 5, x
CC(C)c1cn(CC[C@@H]2CC[C@H](NC(=O)C3CCOCC3)[C@H](CO)O2)nn1
 : x, -3, -2, x, 14, x
Cc1ccc(S(=O)(=O)Nc2ccc3c(c2)C(=O)N([C@H](C)CO)C[C@H](C)[C@H](CN(C)C(=O)c2ccncc2)OCCCC[C@H](C)O3)cc1
 : x, x, x, 0, x, 3
S=C(Nc1ccc(Oc2ccccc2)cc1)N1CCN(c2ccccn2)CC1
 : -12, 3, 0, 43*, 0, x
S=C(Nc1ccc(Cl)c(Cl)c1)N1CCN(c2ccccn2)CC1
 : 0, 5, -7, 0, -12, 5
CC(=O)c1ccc(N2CCN(C(=S)Nc3ccc(Oc4ccccc4)cc3)CC2)cc1
 : -8, -11, -3, 16*, -1, x
COc1ccc(NC(=O)Nc2ccc3c(c2)C(=O)N([C@@H](C)CO)C[C@H](C)[C@H](CN(C)S(=O)(=O)c2ccc(Cl)cc2)OCCCC[C@@H](C)O3)cc1
 : x, -1, -1, 0, -6, -5
C/C=C/c1ccc2c(c1)O[C@@H](CN(C)C(=O)c1ccc3c(c1)OCO3)[C@H](C)CN([C@@H](C)CO)S2(=O)=O
 : x, -3, 0, 0, 6, 11
C[C@@H]1CN([C@@H](C)CO)S(=O)(=O)c2ccc(/C=C/c3ccccc3)cc2O[C@@H]1CN(C)C(=O)c1ccc2c(c1)OCO2
 : x, 0, 24*, x, 1, -19
C[C@@H]1CN([C@H](C)CO)S(=O)(=O)c2ccc(/C=C/c3ccccc3)cc2O[C@@H]1CN(C)C(=O)c1ccc2c(c1)OCO2
 : x, 4, 23*, x, -22, -17
CO[C@H]1CN(C)C(=O)c2cc(NC(=O)C3CC3)ccc2OC[C@H](C)N(C(=O)CN2CCOCC2)C[C@H]1C
 : x, 4, -3, 0, -9, x

A second format for 4 compounds above.
C[C@H]1CCCCO[C@@H](CN(C)C(=O)C2CCCCC2)[C@@H](C)CN([C@@H](C)CO)C(=O)c2cc(NC(=O)Cc3ccccc3)ccc2O1
  PDI turbidity: x; ERp5 block: -4; SIRT5 inh: -1; FGF22 binding: 1.9*; S100A4 inh HTS: -1; Yeast UUG start: 5

COc1ccc(NC(=O)N(C)C[C@H]2OCCCC[C@@H](C)Oc3ccc(NC(=O)Cc4ccccc4)cc3C(=O)N([C@H](C)CO)C[C@@H]2C)cc1
  PDI turbidity: x; ERp5 block: -1; SIRT5 inh: 19*; FGF22 binding: 0; S100A4 inh HTS: 6; Yeast UUG start: -3

C[C@@H]1CCCCO[C@@H](CN(C)C(=O)C2CCCCC2)[C@@H](C)CN([C@H](C)CO)C(=O)c2cc(NC(=O)Cc3ccccc3)ccc2O1
  PDI turbidity: x; ERp5 block: -2; SIRT5 inh: -3; FGF22 binding: 0; S100A4 inh HTS: -26; Yeast UUG start: 0

C[C@@H]1CCCCO[C@@H](CN(C)C(=O)Cc2ccccc2)[C@H](C)CN([C@@H](C)CO)C(=O)c2cc(NC(=O)Cc3ccccc3)ccc2O1
  PDI turbidity: x; ERp5 block: -6; SIRT5 inh: 6; FGF22 binding: 0; S100A4 inh HTS: 126*; Yeast UUG start: 21

Next structures
Each structure is followed by: PDI turbidity, ERp5 block, SIRT5 inh, FGF22 binding, S100A4 inh HTS, Yeast UUG start
COc1ccc(S(=O)(=O)Nc2ccc3c(c2)C(=O)N([C@H](C)CO)C[C@@H](C)[C@@H](CN(C)S(C)(=O)=O)OCCCC[C@@H](C)O3)cc1
 : x, -2, -1, 0, -15, 9
COC(=O)C[C@H]1CC[C@@H]2[C@H](COC[C@@H](O)CN2C(=O)Nc2cccc(F)c2)O1
 : x, -1, 3, 0, -9, 13
O=[N+]([O-])c1cc(CN2CCN(c3cccc(C(F)(F)F)c3)CC2)c2cccnc2c1O
 : x, 5, -3, 43*, 0, x
O=[N+]([O-])c1cc(CN2CCCC2)c2cccnc2c1O
 : -1, x, x, x, x, x
C[C@H](CO)N1C[C@H](C)[C@@H](CN(C)Cc2ccc(C(F)(F)F)cc2)Oc2c(NC(=O)c3ccc(-c4nccs4)cc3)cccc2C1=O
 : x, -1, 5, 0, 8, -8
C[C@@H]1CN([C@H](C)CO)C(=O)c2cccc(NC(=O)c3ccc(-c4nccs4)cc3)c2O[C@@H]1CN(C)Cc1ccc(C(F)(F)F)cc1
 : x, 1, 17*, 0, -1, 0
